## Yeast mating assay 2: variants of the scFv Ab-95

Data: MIT Lincoln Laboratory AlphaSeq set, Engelhart et al. 2022, doi:10.1038/s41597-022-01779-4, as distributed in FLAb.

Target peptide (SARS-CoV-2 spike, HR2 region): PDVDLGDISGINAS

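The parent was found by panning a naive human phage display library on the peptide. Variants in AAYL52 differ from the parent at up to three CDR positions; double and triple changes were sampled at random. The assay is AlphaSeq: two haploid yeast populations carry antibody and antigen on their surface. Binding brings cells together so that they mate, and sequencing counts the barcode pairs among the diploids. The ratio of observed to expected reads was calibrated, replicate by replicate, on BCL2-family standards whose Kd was known from biolayer interferometry. There are three technical replicates.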

Parent scFv Ab-95: VH joined to VL by the linker GGGGSGGGGSGGGGS. Changes lie in the light chain CDRs alone.
VH: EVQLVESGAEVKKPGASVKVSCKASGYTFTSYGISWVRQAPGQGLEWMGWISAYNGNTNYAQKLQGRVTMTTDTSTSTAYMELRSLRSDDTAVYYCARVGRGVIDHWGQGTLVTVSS
VL: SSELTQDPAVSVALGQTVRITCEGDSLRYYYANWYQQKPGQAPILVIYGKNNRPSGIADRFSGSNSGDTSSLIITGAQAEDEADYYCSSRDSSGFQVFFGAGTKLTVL

Variants are written as CDR1, CDR2 and CDR3 of the light chain (limits as in the source). Parent: EGDSLRYYYAN, GKNNRPS, SSRDSSGFQVF. Affinities are written as log10 Kd with Kd in nM; a lower number is a better binder. Averages over replicates are reported, and they cover detected replicates only. A pair that was not seen in any replicate is written "nd"; this usually means weak binding, but a binder can also be missed. Order: sorted from the lowest average up, undetected variants last. Parent in this assay: reference entry 2.31, copy in this library 2.25. Empty control strains, which show no peptide, gave a signal in 28% of pairings with library AAYL52; the median was 3.91 and 95% of these signals were weaker than 2.90. No background was subtracted.

| # | CDR-L1 | CDR-L2 | CDR-L3 | mean log10 Kd (nM) | detected |
|---|---|---|---|---|---|
| 1 | EGDSLRYEYAN | GKNHRGS | SSRDSSGFQVF | 1.41 | 3/3 |
| 2 | EGDSLRRYEAN | GKNNRPS | ASRDSSGFQVF | 1.44 | 3/3 |
| 3 | SGDSLRYYYAN | GKNERPS | SSRDSSGYQVF | 1.64 | 3/3 |
| 4 | EGDSLRGYYAN | GRNYRPS | SSRDSSGFQVF | 1.65 | 3/3 |
| 5 | RGDSLRYYYCN | GKNNRPS | SSRDSSGFQHF | 2.43 | 3/3 |
| 6 | EGDSLRYYYAN | GKNSRPS | SSRDSSAEQVF | 2.50 | 3/3 |
| 7 | IGSSLRYYYAN | GKNNRPS | SSRDSSGFQVF | 2.54 | 3/3 |
| 8 | EGDSLRYYDAH | GKNPRPS | SSRDSSGFQVF | 2.56 | 2/3 |
| 9 | EGDSLRYYGAN | YKNNRPS | ESRDSSGFQVF | 2.59 | 3/3 |
| 10 | NGDSLRYYYAN | GKNNRPD | SSRTSSGFQVF | 2.74 | 3/3 |
| 11 | EGDSLRYYMAN | GKNNRPS | SSRDSSGFGVF | 2.86 | 3/3 |
| 12 | EGDSLRRYYAN | GKDNRPS | SSRDWSGFQVF | 2.97 | 2/3 |
| 13 | AGDSLRYYYAN | GKNNRPS | SSRWSSCFQVF | 3.02 | 3/3 |
| 14 | GYDSLRYYYLN | GKNNRPS | SSRDSSGFQVF | 3.27 | 3/3 |
| 15 | EGDSLGYYYAN | GKWNRPS | SSRDSSGFAVF | 3.27 | 3/3 |
| 16 | EGDSLRYGYAN | GKNNPPS | SSRDWSGFQVF | 3.29 | 3/3 |
| 17 | EHDSLRYKYAN | GKNNRPS | RSRDSSGFQVF | 3.30 | 3/3 |
| 18 | EGDTLRYYYAN | GNNNRPS | SSRDSSGFQKF | 3.33 | 2/3 |
| 19 | EGDSLRYYYIN | PKNNRPS | SSRDSSGFQVN | 3.39 | 1/3 |
| 20 | EGQSHRYYYAN | GKNNRPS | SSRDSSFFQVF | 3.43 | 3/3 |
| 21 | EGDSLRYYYAN | GKNNRPS | SSRDSSQFIVF | 3.43 | 3/3 |
| 22 | EGDSLRLYYAN | GKDNRPM | SSRDSSGFQVF | 3.45 | 3/3 |
| 23 | NGDSLRYYYMN | GKNNRPS | SSRDSSAFQVF | 3.52 | 1/3 |
| 24 | EGDSLRYYCAV | GKNNMPS | SSRDSSGFQVF | 3.57 | 3/3 |

Further variants, results first:

| # | mean log10 Kd (nM) | detected | CDR-L1 | CDR-L2 | CDR-L3 |
|---|---|---|---|---|---|
| 25 | 3.59 | 2/3 | WGDSLRYYYAN | GKNNRPP | SSRDSSGFDVF |
| 26 | 3.59 | 2/3 | EGDSRRYYSAN | GKSNRPS | SSRDSSGFQVF |
| 27 | 3.63 | 2/3 | EVDSSRYYYAN | GKNNRPS | SSRMSSGFQVF |
| 28 | 3.76 | 2/3 | EGDSLCYYYAN | GKNNCPS | SSRDSSNFQVF |
| 29 | 3.83 | 1/3 | EGDSLRYYYAN | GKNNRPC | SSRDSSGDQVQ |
| 30 | 3.90 | 1/3 | EGDSLRYYYAG | GKNDRPS | SSRDSSGFQVF |
| 31 | 3.91 | 1/3 | EGDSAIYYYAN | GKNNRPS | SSRDSSGFQIF |
| 32 | 3.93 | 1/3 | EGLSLRQYYAN | GKPNRPS | SSRDSSGFQVF |
| 33 | 4.13 | 1/3 | EGGSSRYYYAN | GKNNRPS | SSRKSSGFQVF |
| 34 | 4.19 | 2/3 | EGDSLRYYGFN | GKNNRPS | SSEDSSGFQVF |
| 35 | 4.21 | 2/3 | EGDSLRYYYHN | GKNNRNS | SSRDSSGFQVT |
| 36 | 4.23 | 2/3 | EGDSRRYYYAL | GKDNRPS | SSRDSSGFQVF |
| 37 | 4.26 | 1/3 | EGDSLRYYYAN | GKNNRAS | KSRDSSGFQVM |
| 38 | 4.28 | 1/3 | EGDSHRYYYAE | GKNNRPS | SSRDRSGFQVF |
| 39 | 4.73 | 2/3 | PGDSLRYYYAN | GHNNRPS | SSRDSSQFQVF |
| 40 | 4.74 | 2/3 | EGDSIRYYYAN | FKNNRPM | SSRDSSGFQVF |
| 41 | 4.78 | 1/3 | EGDSLRYEYNN | GKNNFPS | SSRDSSGFQVF |
| 42 | 4.85 | 3/3 | EGDCLRYYYAN | GKNNRPS | SSHQSSGFQVF |
| 43 | 5.33 | 2/3 | EGDSLRYYYAN | GKLNRPS | SSWDSSCFQVF |
| 44 | nd | 0/3 | EGDSLRYYYAN | GKNNRPS | KSRDSTGFQVK |
| 45 | nd | 0/3 | EQSSLRYYYAN | GKNNRPS | SSRDSSGFQVH |
| 46 | nd | 0/3 | EGDSLRYYYAN | GKNNRAY | SSLDSSGFQVF |
| 47 | nd | 0/3 | EGDSLRYYYAN | GKNNRPS | QSRDSSKFQVI |
| 48 | nd | 0/3 | EGDWLRYYYAN | GKNNRPS | SSRPSSGRQVF |

From the list, the first 5 with no signal in any replicate:

CDR-L1,CDR-L2,CDR-L3,mean log10 Kd (nM),detected
EGDSLRYYYAN,GKNNRPS,KSRDSTGFQVK,nd,0/3
EQSSLRYYYAN,GKNNRPS,SSRDSSGFQVH,nd,0/3
EGDSLRYYYAN,GKNNRAY,SSLDSSGFQVF,nd,0/3
EGDSLRYYYAN,GKNNRPS,QSRDSSKFQVI,nd,0/3
EGDWLRYYYAN,GKNNRPS,SSRPSSGRQVF,nd,0/3